Experimental findings from patent US11564394B2, “Distorted gold (I)-phosphine complexes and methods for use as antifungal agents” (University of Kentucky Research Foundation, priority 2019, dated 2023) are described below.

Where two headings read alike, the source gives them in different places.

The subject of series [1] is murine and human red blood cells (RBCs). As to conditions: at 7.8 μg/mL. The method, then: The RBCs were resuspended in PBS to achieve a cell concentration of on the order of 10^7 cells/mL. Compounds were dissolved at concentration of 3.14 mg/mL (200×) in DMSO. Serial double dilutions were made in DMSO. A 1:100 dilution of compound in PBS was added to 100 of RBCs in a 96-well plate (total volume of 200 μL). Compounds were tested in the range of 0.06-15.6 μg/mL in quadruplicate with 0.5% DMSO and ˜5×10^6 RBCs per tube. The RBCs were also treated with 1% Triton-X® (positive control) and PBS (negative control). The RBCs were treated for 30 min at 37° C. and the absorbance was read at 595 nm. Hemolysis is visually observed by a decrease in optical density of the wells (turbid, dark red to transparent pink). Percent hemolysis (FIG. 5A-B) was calculated using this equation after subtraction of the background absorbance ([…]): […]

Another series relates to murine red blood cells. As to conditions: murine RBCs; at 3.9 mg/mL (so in the source); 30 min at 37° C.

For “bis-[1,2-bis[(2S,5S)-2,5-dimethylphospholano]benzene]gold(I) [Compound 4]”, the “hemolytic activity” value in series [1] is “displayed hemolytic activity”. Besides, in the series with murine red blood cells, the hemolysis is on record as 13%. In addition, the survival with mice (mice, dose of 8 mg/kg) is 83%; in the series with mice (mouse, in vivo, 2 mg/kg) it was 100%.

As for “bis-[1,2-bis[(2R,5R)-2,5-dimethylfphospholano]benzene]gold(1) [Compound 6]”, the “hemolytic activity” value in series [1] is “displayed hemolytic activity”. In the series with murine red blood cells, this substance showed a hemolysis of 60%. For the same substance, the survival with mice (mice, dose of 8 mg/kg) turned out to be 67%; in the series with mice (mouse, in vivo, 2 mg/kg), 100%.
